{"sequences": {"note": "Sequences of proteins named here, by UniProt entry; tags and fusion partners are left off. A change or cut given only in a name is not applied to a line headed by its entry.", "UniProt P41145": "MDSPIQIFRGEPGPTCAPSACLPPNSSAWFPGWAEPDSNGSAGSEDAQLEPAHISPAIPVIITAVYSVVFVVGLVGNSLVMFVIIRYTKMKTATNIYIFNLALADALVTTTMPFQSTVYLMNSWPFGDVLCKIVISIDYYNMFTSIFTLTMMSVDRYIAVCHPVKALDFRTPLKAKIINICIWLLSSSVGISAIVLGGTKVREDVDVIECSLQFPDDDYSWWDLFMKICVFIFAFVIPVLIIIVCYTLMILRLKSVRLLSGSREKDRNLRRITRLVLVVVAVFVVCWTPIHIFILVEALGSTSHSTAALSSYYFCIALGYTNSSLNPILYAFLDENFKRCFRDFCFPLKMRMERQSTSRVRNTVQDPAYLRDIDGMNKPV"}, "source": "ChEMBL document CHEMBL1149338", "about": "“Synthesis and in vitro evaluation of salvinorin A analogues: effect of configuration at C(2) and substitution at C(18)” (Bioorg Med Chem Lett, 2006)", "target": "Kappa-type opioid receptor (Homo sapiens, UniProt P41145)", "experiment": "Enhancement of [35S]GTP-gamma-S binding to human KOR expressed in CHO cells relative to U50,488H", "assay_type": "functional, cell-based"}
{"molecule": "COC(=O)[C@@H]1C[C@@H](OC(C)=O)C(=O)[C@H]2[C@@]1(C)CC[C@H]1C(=O)O[C@H](c3ccoc3)C[C@]21C", "values": [{"measurement": "Efficacy", "result": 102, "unit": "%"}]}
